What all share (test): FOREST: bead pull-down of RNA structure library v1, barcode microarray; U1A/LIN28A: 20 mM HEPES pH 7.5, 80 mM KCl, 20 mM NaCl, 10% glycerol, 2 mM DTT, 0.1 ug/uL BSA, 4 C; BG4/CIRBP/DHX36: 10 mM Tris-HCl pH 7.5, 100 mM KCl (or LiCl),; high values mean tight binding
The target of one experiment is U1A (Homo sapiens, UniProt P09012).
The target in the next experiment is T1, LIN28A (human?, UniProt Q9H9Z2 1-209).
T1 sequence: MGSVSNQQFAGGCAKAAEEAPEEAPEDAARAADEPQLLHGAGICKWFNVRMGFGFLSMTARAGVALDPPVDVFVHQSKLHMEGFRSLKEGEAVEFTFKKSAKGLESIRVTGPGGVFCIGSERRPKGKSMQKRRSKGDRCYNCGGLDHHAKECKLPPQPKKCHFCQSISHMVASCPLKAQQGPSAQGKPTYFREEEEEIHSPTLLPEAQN

A further experiment has as its target T2, CIRBP (Homo sapiens, UniProt Q14011 1-172).
T2 sequence: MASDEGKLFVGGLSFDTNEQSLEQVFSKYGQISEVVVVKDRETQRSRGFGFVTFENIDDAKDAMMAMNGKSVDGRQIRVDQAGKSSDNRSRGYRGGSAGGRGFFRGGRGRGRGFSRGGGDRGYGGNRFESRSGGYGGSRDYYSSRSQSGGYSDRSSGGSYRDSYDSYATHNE

In the next experiment the target is T3, DHX36 (Homo sapiens, UniProt Q9H2U1 1-1008).
T3 sequence: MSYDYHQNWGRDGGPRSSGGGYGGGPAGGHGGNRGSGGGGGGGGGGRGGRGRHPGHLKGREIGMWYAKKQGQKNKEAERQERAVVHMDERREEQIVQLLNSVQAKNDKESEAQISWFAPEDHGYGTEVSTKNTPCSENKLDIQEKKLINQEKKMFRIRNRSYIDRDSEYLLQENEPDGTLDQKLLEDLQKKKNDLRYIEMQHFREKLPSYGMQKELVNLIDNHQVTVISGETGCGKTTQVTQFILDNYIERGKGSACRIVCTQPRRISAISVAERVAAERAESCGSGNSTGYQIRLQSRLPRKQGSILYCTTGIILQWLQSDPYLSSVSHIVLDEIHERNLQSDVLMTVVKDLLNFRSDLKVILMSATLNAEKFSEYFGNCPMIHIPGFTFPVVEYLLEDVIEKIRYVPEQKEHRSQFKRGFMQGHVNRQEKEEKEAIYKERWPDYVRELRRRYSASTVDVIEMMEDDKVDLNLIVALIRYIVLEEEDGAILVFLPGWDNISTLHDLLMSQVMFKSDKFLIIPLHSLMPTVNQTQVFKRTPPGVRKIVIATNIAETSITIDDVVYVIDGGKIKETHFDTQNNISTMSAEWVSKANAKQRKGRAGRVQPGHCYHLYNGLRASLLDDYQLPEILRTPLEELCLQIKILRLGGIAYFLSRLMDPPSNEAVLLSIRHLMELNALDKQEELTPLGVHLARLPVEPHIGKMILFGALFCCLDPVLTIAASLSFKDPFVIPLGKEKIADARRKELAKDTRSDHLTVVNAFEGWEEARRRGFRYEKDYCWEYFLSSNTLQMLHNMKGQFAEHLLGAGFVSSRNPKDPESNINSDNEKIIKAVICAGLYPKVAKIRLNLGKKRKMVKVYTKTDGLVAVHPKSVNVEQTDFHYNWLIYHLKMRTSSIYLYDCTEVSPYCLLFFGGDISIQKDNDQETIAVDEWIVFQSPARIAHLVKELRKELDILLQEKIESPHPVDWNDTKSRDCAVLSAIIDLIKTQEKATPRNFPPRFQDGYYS

The source of these data is PMC7723054.

This is one part of the list.

B1: hsa-mir-5002 (structured_RNA)
RNA: GGGAAACUAGUAUUUCAGCCGUAUGCGAGGUGUACGAAGUUUCAGCCUUAGUAGGUGAUAGCAUGACUGACGCUGAAGCUUCGUGCAC
B1: the binding signal is 0.354 z-score with U1A, 2.5 z-score with LIN28A, 0.124 z-score with CIRBP and -0.537 z-score with DHX36.

B2: NEAT1_ParasoR_ID38 (structured_RNA)
RNA: GGGAAUACCCGGGAACUGCCAAUAUGAUGGUGUACGAAGUUUCAGCGGUUUUCCGCUGAAGCUUCGUGCAC
B2: the binding signal is 0.338 z-score with U1A, -1.6 z-score in the experiment with LIN28A, -0.406 z-score with CIRBP and -0.751 z-score in the experiment with DHX36.

B3: hsa-let-7f-1 (structured_RNA)
RNA: GGGAAGUACCCGUAGCAAUUAUACGACUGGUGUACGAAGUUUCAGCAUAGUUGUGGGGUAGUGAUUUUACCCUGUUCAGGAGAUAACUAUGCUGAAGCUUCGUGCAC
On to B3, for which the binding signal came out at 0.339 z-score in the experiment with U1A, 3.89 z-score with LIN28A, 0.0327 z-score with CIRBP and 0.113 z-score with DHX36.

B4: hsa-mir-4426 (structured_RNA)
RNA: GGGACGCCGAGCUAUGGUAAGUUCAUGCGGUGUACGAAGUUUCAGCCUUUGUCUGACUACAAUAUUCAAAAGGCUGAAGCUUCGUGCAC
As for B4, the binding signal is 0.342 z-score with U1A, -0.504 z-score with LIN28A, -0.402 z-score in the experiment with CIRBP and -1.06 z-score with DHX36.

B5: NEAT1_ParasoR_ID48 (structured_RNA)
RNA: GGGAGGUAUCCCAUCCGCCAAAUUGAUGGGUGUACGAAGUUUCAGCGUGUCUUUCUGGUAUAAUGACUUCUUUUCCUUUGGGUAGAUACGCUGAAGCUUCGUGCAC
Turning to B5, the binding signal with U1A is 0.338 z-score; with LIN28A, -0.052 z-score; in the experiment with CIRBP it was -0.127 z-score; in the experiment with DHX36, -1.12 z-score.

B6: hsa-mir-4796 (structured_RNA)
RNA: GGGACCACAUUGGAUCGACCGCAACUCGGGUGUACGAAGUUUCAGCUUUACUUUUGGCCUCAAGUCAUUGCAGUAAAGCUGAAGCUUCGUGCAC
B6: the binding signal with U1A was 0.327 z-score; with LIN28A, -1.5 z-score; in the experiment with CIRBP, -0.4 z-score; with DHX36 it was -0.893 z-score.

B7: hsa-mir-4720 (structured_RNA)
RNA: GGGAUGACCAUUGGAUAUAGCAACAAGCGGUGUACGAAGUUUCAGCACUUAAGCACCAGGUAAAAUCUGGUGCUUAAGUGCUGAAGCUUCGUGCAC
As for B7, the binding signal was 0.344 z-score in the experiment with U1A, -0.135 z-score in the experiment with LIN28A, 1.03 z-score with CIRBP and -0.0294 z-score with DHX36.

B8: hsa-mir-6795 (structured_RNA)
RNA: GGGAAUGCGCAUAGCCAACGGAACUAACGGUGUACGAAGUUUCAGCAGGCUGUCUUCAUUCCCUCUUGACCACCCGCUGAAGCUUCGUGCAC
As for B8, the binding signal was 0.324 z-score with U1A, 0.676 z-score with LIN28A, 1.41 z-score with CIRBP and 0.373 z-score with DHX36.

B9: hsa-mir-4275 (structured_RNA)
RNA: GGGAGGACUUAGAGCUCGCCAAGCAUGCGGUGUACGAAGUUUCAGCCUUUUUGCCACCUGAGCACAGUCAGCAGUCAGCAUAAAAGCUGAAGCUUCGUGCAC
Regarding B9, the binding signal in the experiment with U1A is 1.92 z-score; with LIN28A it was -1.1 z-score; in the experiment with CIRBP, -1.32 z-score; in the experiment with DHX36, 0.15 z-score.

B10: NEAT1_ParasoR_ID37 (structured_RNA)
RNA: GGGAAGCAACAGAGUACGUCAAACAUUGGGUGUACGAAGUUUCAGCUGACUUUCUGGUUAUAAUCAUUCUAAUGAGUGUGAAGUAGCCUCUGGUGUCAGCUGAAGCUUCGUGCAC
Turning to B10, the binding signal with U1A is 0.324 z-score; with LIN28A it was -0.781 z-score; with CIRBP, -0.414 z-score; in the experiment with DHX36, -0.941 z-score.

B11: hsa-mir-7158 (structured_RNA)
RNA: GGGAAGCACCAUGCGGAGAGAACAUCAGGGUGUACGAAGUUUCAGCGCAGCCUUCUGCCUUUGGCUUUCUGAAGCGAGCUGAGCUGAAGCUUCGUGCAC
As to B11, the binding signal was 0.351 z-score in the experiment with U1A, -1.53 z-score in the experiment with LIN28A, -0.693 z-score with CIRBP and -0.376 z-score in the experiment with DHX36.

B12: hsa-mir-3689d-2 (structured_RNA)
RNA: GGGAGUCGCCCGGUCAACUAAGAAACCAGGUGUACGAAGUUUCAGCCUCGCUGGGAGGUGUGCUAUCGUCUUCCCUGGGAGGCUGAAGCUUCGUGCAC
Turning to B12, the binding signal in the experiment with U1A is 1.92 z-score; with LIN28A, -0.246 z-score; in the experiment with CIRBP, 0.112 z-score; with DHX36 it was 0.0807 z-score.

B13: hsa-mir-363 (structured_RNA)
RNA: GGGAAUGGGACCCGUGGAUUUCUAAGACGGUGUACGAAGUUUCAGCAAUUUUGAUGAGUAUCAUAGGAGAAAAAUUGCUGAAGCUUCGUGCAC
As for B13, the binding signal with U1A is 0.326 z-score; with LIN28A it was 1.69 z-score; with CIRBP it was -0.343 z-score; with DHX36, -0.548 z-score.

B14: hsa-mir-4727 (structured_RNA)
RNA: GGGAAGGGUCUACGAUGUAUCAGAACAUGGUGUACGAAGUUUCAGCCAGUGGCAGAUUUUCCCAUAGGCUGAAGCUUCGUGCAC
Take B14: the binding signal with U1A was 0.341 z-score; with LIN28A it was 0.444 z-score; with CIRBP it was -1.19 z-score; in the experiment with DHX36, -0.747 z-score.

B15: hsa-mir-6852 (structured_RNA)
RNA: GGGAUAUCGCUACGAUGAAAGCUUGUACGGUGUACGAAGUUUCAGCGACAUGCUCUGACUCCCCUGAUGUCGCUGAAGCUUCGUGCAC
Regarding B15, the binding signal with U1A is 0.344 z-score; with LIN28A, 0.0776 z-score; with CIRBP, 0.116 z-score; in the experiment with DHX36, -0.347 z-score.

B16: NEAT1_ParasoR_ID40 (structured_RNA)
RNA: GGGAGCUAAAGAGCGAUGCACGAAUAUGGGUGUACGAAGUUUCAGCCUGAGUUGUAAGAGUUCUUUAUAUAUUCUGGAUUCUAGACCCUUAUCAGGCUGAAGCUUCGUGCAC
Take B16: the binding signal is 0.328 z-score in the experiment with U1A, 1.2 z-score with LIN28A, -0.474 z-score with CIRBP and 0.356 z-score in the experiment with DHX36.

B17: hsa-mir-570 (structured_RNA)
RNA: GGGAACGCGCAGGUGCAAGGAUCACAUUGGUGUACGAAGUUUCAGCUUUCCCAUUAUUUUAAUUGCGAAGCUGAAGCUUCGUGCAC
For B17, the binding signal in the experiment with U1A was 0.33 z-score; in the experiment with LIN28A, -0.389 z-score; with CIRBP, -0.897 z-score; with DHX36, -0.683 z-score.

B18: hsa-mir-4691 (structured_RNA)
RNA: GGGAAAUAAAGAAUGGGUAGUUUCGCACGGUGUACGAAGUUUCAGCCUGCGGCCCUGAUGUCUCUACUCCAGGCUGAAGCUUCGUGCAC
B18: the binding signal is 0.34 z-score in the experiment with U1A, 0.976 z-score with LIN28A, -0.0212 z-score with CIRBP and 0.919 z-score in the experiment with DHX36.

B19: hsa-mir-7109 (structured_RNA)
RNA: GGGAAAGUCACUACACGUGUUUACGCAGGGUGUACGAAGUUUCAGCCUGCUCUCCCUGGCAGCAAGGCUGAAGCUUCGUGCAC
For B19, the binding signal with U1A is 0.349 z-score; with LIN28A, -1.67 z-score; in the experiment with CIRBP, -1.08 z-score; with DHX36 it was 0.561 z-score.

B20: hsa-mir-6508 (structured_RNA)
RNA: GGGAACAAUAUCACAACAAGCCGUGAUCGGUGUACGAAGUUUCAGCCCCACCCUGAGUUUUGGUGGGGCUGAAGCUUCGUGCAC
For the molecule B20, the binding signal was 0.328 z-score in the experiment with U1A, -0.724 z-score with LIN28A, -1.54 z-score with CIRBP and -1.03 z-score in the experiment with DHX36.

B21: hsa-mir-191 (structured_RNA)
RNA: GGGAGAUUGACUACACGGAUCCUGACCGGGUGUACGAAGUUUCAGCCAGCUGUUGUCUCCAGAGCAUUCCAGCUGGCUGAAGCUUCGUGCAC
With B21, the binding signal in the experiment with U1A was 0.337 z-score; with LIN28A it was -0.862 z-score; in the experiment with CIRBP, -1.19 z-score; in the experiment with DHX36 it was -0.0679 z-score.

B22: hsa-mir-3134 (structured_RNA)
RNA: GGGACCACCUCCAUGUCCCAUGUCCAUCGGUGUACGAAGUUUCAGCCUCACAUGGAGUAAAAUAUGAUGCUGAAGCUUCGUGCAC
As to B22, the binding signal was 0.34 z-score in the experiment with U1A, 1.22 z-score with LIN28A, 1.88 z-score with CIRBP and -0.217 z-score with DHX36.
